Results published in PubChem BioAssay AID2300 (The Scripps Research Institute Molecular Screening Center, 2010).
This is a selection; strong and weak results do not stand in their true shares. The source made the active and inactive calls.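 Rule for the calls: active = percent inhibition above the cutoff of mean plus 3 SD of all tested compounds, set per screening campaign (cut at about 20% in these data); inactive = the rest.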

Amino acid sequences for entries named in this document (tags omitted).
UniProt Q9Y5X4, whole entry: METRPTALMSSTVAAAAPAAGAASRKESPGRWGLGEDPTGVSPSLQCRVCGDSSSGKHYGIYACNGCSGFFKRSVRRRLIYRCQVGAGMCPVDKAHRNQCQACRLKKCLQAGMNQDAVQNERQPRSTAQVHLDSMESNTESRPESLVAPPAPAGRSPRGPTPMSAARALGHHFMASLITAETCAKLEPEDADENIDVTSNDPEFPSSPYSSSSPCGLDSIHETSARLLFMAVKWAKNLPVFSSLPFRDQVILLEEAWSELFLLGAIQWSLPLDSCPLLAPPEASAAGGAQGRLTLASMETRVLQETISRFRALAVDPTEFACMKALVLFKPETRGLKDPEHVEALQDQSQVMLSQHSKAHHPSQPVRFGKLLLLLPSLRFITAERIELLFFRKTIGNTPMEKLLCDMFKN

biological target: Photoreceptor-specific nuclear receptor (Homo sapiens) (UniProt Q9Y5X4); test: inhibitors of NR2E3-RetCOR corepressor binding, primary screen, NR2E3 agonist project, biochemical, TR-FRET, GST-NR2E3, biotin-RetCOR (AID 2300); conditions: 1536-well, at 4.78 µM, stronger effect = higher value;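 note: 0% = DMSO wells and 100% = biotin wells as full block of FRET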
How it was run: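 Assay system: NR2E3–RetCOR corepressor complex. Quantity: 1.35 nM GST-NR2E3. Buffer or medium: pH 7.5 Tris-based buffer. Reagent: biotinylated RetCOR corepressor at 7 nM final. Schedule: 5 h at 4 °C. Detection: TR-FRET, emission read at 617 and 671 nm. Replicates: one well per compound, singlicate testing.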

**Q.** Which inhibition of corepressor binding does the source give for COc1ccc(C(=O)NCC2(N3CCCCC3)CCCCC2)cc1 here?
**A.** Its inhibition of corepressor binding is inactive: 2.51%.

**Q.** For CC(C)(C)OC(=O)N1CCC(N(C(=O)c2ccccc2)c2ccc(F)cc2)CC1, which inhibition of corepressor binding is on record?
**A.** Its inhibition of corepressor binding is inactive: 1.6%.

**Q.** With COc1ccc(C(=O)NCC2(N3CCCCC3)CCCCC2)c(OC)c1OC as the compound, how does the inhibition of corepressor binding read?
**A.** Its inhibition of corepressor binding is inactive: 1.8%.

**Q.** Which inhibition of corepressor binding does the source give for O=C(NCC1(N2CCCCC2)CCCCC1)c1ccc(=O)[nH]c1 here?
**A.** The inhibition of corepressor binding was inactive: -3.05%.

**Q.** For O=C(NCC1(N2CCCCC2)CCCCC1)c1cccs1, which inhibition of corepressor binding is on record?
**A.** Its inhibition of corepressor binding is inactive: -1.22%.

**Q.** With CSc1ccccc1C(=O)NCC1(N2CCCCC2)CCCCC1 as the compound, how does the inhibition of corepressor binding read?
**A.** Its inhibition of corepressor binding is inactive: 2.3%.

**Q.** With O=C(NCC1(N2CCCCC2)CCCCC1)c1ccc(Cl)nc1 as the compound, how does the inhibition of corepressor binding read?
**A.** The inhibition of corepressor binding was inactive: 3.07%.

**Q.** For Cc1cc(C)cc(N(C(=O)c2ccccc2)C2CCN(C(=O)OC(C)(C)C)CC2)c1, which inhibition of corepressor binding is on record?
**A.** Its inhibition of corepressor binding is inactive: 3.32%.

**Q.** O=C(NCC1(N2CCOCC2)CCCCC1)c1cc2ccccc2o1 was tested. Which inhibition of corepressor binding did it give?
**A.** Its inhibition of corepressor binding is inactive: 2.43%.

**Q.** O=C(NCC1(N2CCCCC2)CCCCC1)c1ccc(Cl)s1 was tested. Which inhibition of corepressor binding did it give?
**A.** The inhibition of corepressor binding was inactive: 0.91%.

**Q.** For N#CC1(Nc2ccccc2)CCN(Cc2ccccc2)CC1, which inhibition of corepressor binding is on record?
**A.** Its inhibition of corepressor binding is inactive: -1.44%.

**Q.** O=C(OC1CN2CCC1CC2)C1c2ccccc2Oc2ccccc21 (stereo unspecified) was tested. Which inhibition of corepressor binding did it give?
**A.** The inhibition of corepressor binding was inactive: 5.21%.

**Q.** With COc1ccc(Cl)cc1C(=O)NCC1(N2CCOCC2)CCCCC1 as the compound, how does the inhibition of corepressor binding read?
**A.** Its inhibition of corepressor binding is inactive: 0.24%.

**Q.** With CCOC(=O)N1CCC(Nc2ccc(OC)cc2)CC1 as the compound, how does the inhibition of corepressor binding read?
**A.** Its inhibition of corepressor binding is inactive: 0.38%.

**Q.** For CCOc1ccc(C)cc1CN(CCCl)CCCl, which inhibition of corepressor binding is on record?
**A.** Its inhibition of corepressor binding is inactive: 3.01%.

**Q.** Which inhibition of corepressor binding does the source give for O=C(NCC1(N2CCCCC2)CCCCC1)c1ccc(F)cc1 here?
**A.** Its inhibition of corepressor binding is inactive: -0.36%.

**Q.** For COc1ccc(NC2CCN(CCc3ccccc3)CC2)c(OC)c1, which inhibition of corepressor binding is on record?
**A.** Its inhibition of corepressor binding is inactive: -0.09%.

**Q.** How did the inhibition of corepressor binding turn out when CCOC(=O)N1CCC(Nc2cccc(C)c2)CC1 was run?
**A.** Its inhibition of corepressor binding is inactive: -1.95%.

**Q.** How did the inhibition of corepressor binding turn out when Cc1ccc(OCC(C)C)c(CN(CCCl)CCCl)c1 was run?
**A.** The inhibition of corepressor binding was inactive: 1.06%.

**Q.** How did the inhibition of corepressor binding turn out when O=C(NCC1(N2CCCCC2)CCCCC1)c1ccc(OC(F)F)cc1 was run?
**A.** Its inhibition of corepressor binding is inactive: 3.64%.

**Q.** With CCN1CCC(Nc2ccc(Cl)cc2)CC1 as the compound, how does the inhibition of corepressor binding read?
**A.** Its inhibition of corepressor binding is inactive: 1.53%.

**Q.** Which inhibition of corepressor binding does the source give for N#CC1(Nc2ccccc2)CCN(CCc2ccccc2)CC1 here?
**A.** Its inhibition of corepressor binding is inactive: -0.35%.

**Q.** How did the inhibition of corepressor binding turn out when O=C(NCC1(N2CCCCC2)CCCCC1)c1cccc([N+](=O)[O-])c1 was run?
**A.** The inhibition of corepressor binding was inactive: -2.93%.

**Q.** How did the inhibition of corepressor binding turn out when O=C(NCC1(N2CCCCC2)CCCCC1)c1cccc(C(F)(F)F)c1 was run?
**A.** Its inhibition of corepressor binding is inactive: -1.1%.

**Q.** How did the inhibition of corepressor binding turn out when O=C(NCC1(N2CCOCC2)CCCCC1)c1cc(=O)[nH]c2ccccc12 was run?
**A.** The inhibition of corepressor binding was inactive: 3.17%.

**Q.** Which inhibition of corepressor binding does the source give for COc1cc(C(=O)NCC2(N3CCCCC3)CCCCC2)ccc1OC(F)F here?
**A.** Its inhibition of corepressor binding is inactive: -1.09%.

**Q.** How did the inhibition of corepressor binding turn out when COc1ccc(NC2CCN(C(=O)OC(C)(C)C)CC2)cc1 was run?
**A.** Its inhibition of corepressor binding is inactive: -1.88%.

**Q.** Which inhibition of corepressor binding does the source give for CN1CCN(CCOC(=O)C(O)(c2ccccc2)c2ccccc2)CC1 here?
**A.** Its inhibition of corepressor binding is inactive: -1.02%.

**Q.** Which inhibition of corepressor binding does the source give for CC(C)c1ccc(NC2CCN(C(=O)OC(C)(C)C)CC2)cc1 here?
**A.** Its inhibition of corepressor binding is inactive: -3.63%.

**Q.** With COc1ccc(CN(CCCl)CCCl)cc1Cl as the compound, how does the inhibition of corepressor binding read?
**A.** Its inhibition of corepressor binding is inactive: -1.93%.

**Q.** CN(C)c1cccc(C(=O)NCC2(N3CCCCC3)CCCCC2)c1 was tested. Which inhibition of corepressor binding did it give?
**A.** The inhibition of corepressor binding was inactive: 4.15%.

**Q.** Which inhibition of corepressor binding does the source give for COc1cc(OC)c(C(=O)NCC2(N(C)C)CCCCC2)cc1OC here?
**A.** The inhibition of corepressor binding was inactive: 3%.

**Q.** CN1CCC(Nc2cccc(F)c2)CC1 was tested. Which inhibition of corepressor binding did it give?
**A.** Its inhibition of corepressor binding is inactive: -0.62%.

**Q.** O=C(NCC1(N2CCCCC2)CCCCC1)c1cncc(Br)c1 was tested. Which inhibition of corepressor binding did it give?
**A.** The inhibition of corepressor binding was inactive: -1.62%.

**Q.** How did the inhibition of corepressor binding turn out when O=C(NCC1(N2CCOCC2)CCCCC1)c1cc(Br)ccc1Cl was run?
**A.** The inhibition of corepressor binding was inactive: 4.42%.

**Q.** COc1ccc(C(=O)NCC2(N3CCOCC3)CCCCC2)cc1OC was tested. Which inhibition of corepressor binding did it give?
**A.** Its inhibition of corepressor binding is inactive: 5.13%.

**Q.** With CCOC(=O)N1CCC(Nc2ccc(C)cc2)CC1 as the compound, how does the inhibition of corepressor binding read?
**A.** The inhibition of corepressor binding was inactive: 2.39%.

**Q.** N/C(=N\O)c1c(N)no[n+]1[O-] was tested. Which inhibition of corepressor binding did it give?
**A.** The inhibition of corepressor binding was inactive: -1.45%.

**Q.** For CCc1cc(C(=O)NCC2(N3CCCCC3)CCCCC2)sc1C, which inhibition of corepressor binding is on record?
**A.** Its inhibition of corepressor binding is inactive: 0.84%.

**Q.** For O=C(OC1CN2CCC1CC2)C1c2ccccc2C=Cc2ccccc21 (stereo unspecified), which inhibition of corepressor binding is on record?
**A.** The inhibition of corepressor binding was inactive: -2.33%.

**Q.** Which inhibition of corepressor binding does the source give for N#Cc1ccc(C(=O)NCC2(N3CCCCC3)CCCCC2)cc1 here?
**A.** Its inhibition of corepressor binding is inactive: 4.62%.

**Q.** Which inhibition of corepressor binding does the source give for CC(C)(C)OC(=O)N1CCC(N(C(=O)c2ccccc2)c2ccc(Cl)cc2)CC1 here?
**A.** The inhibition of corepressor binding was inactive: -2.33%.

**Q.** Which inhibition of corepressor binding does the source give for CN(C)C1(CNC(=O)c2cccc(C#N)c2)CCCCC1 here?
**A.** Its inhibition of corepressor binding is inactive: -1.76%.

**Q.** With c1ccc(CN2CCC(Nc3ccccc3)CC2)cc1 as the compound, how does the inhibition of corepressor binding read?
**A.** Its inhibition of corepressor binding is inactive: 0.29%.

**Q.** For CCCN1CCC(Nc2cc(OC)cc(OC)c2)CC1, which inhibition of corepressor binding is on record?
**A.** The inhibition of corepressor binding was inactive: 4.48%.

**Q.** With COc1cc(OC)cc(C(=O)NCC2(N3CCCCC3)CCCCC2)c1 as the compound, how does the inhibition of corepressor binding read?
**A.** Its inhibition of corepressor binding is inactive: -2.38%.

**Q.** With Cc1ccc(C(=O)NCC2(N3CCCCC3)CCCCC2)o1 as the compound, how does the inhibition of corepressor binding read?
**A.** The inhibition of corepressor binding was inactive: -4.77%.

**Q.** How did the inhibition of corepressor binding turn out when Fc1ccccc1NC1CCN(Cc2ccccc2)CC1 was run?
**A.** Its inhibition of corepressor binding is inactive: 1.42%.

**Q.** For CCN1CCC(Nc2cccc(F)c2)CC1, which inhibition of corepressor binding is on record?
**A.** The inhibition of corepressor binding was inactive: -4.25%.

**Q.** Which inhibition of corepressor binding does the source give for O=C(NCC1(N2CCCCC2)CCCCC1)c1ccco1 here?
**A.** Its inhibition of corepressor binding is inactive: 0.2%.

**Q.** Which inhibition of corepressor binding does the source give for CN(C)c1ccc(C(=O)NCC2(N3CCCCC3)CCCCC2)cc1 here?
**A.** The inhibition of corepressor binding was inactive: -1.09%.

**Q.** CCOc1ncccc1C(=O)NCC1(N2CCOCC2)CCCCC1 was tested. Which inhibition of corepressor binding did it give?
**A.** Its inhibition of corepressor binding is inactive: 2.5%.

**Q.** How did the inhibition of corepressor binding turn out when CN1CCC(Nc2ccc(F)c(Cl)c2)CC1 was run?
**A.** The inhibition of corepressor binding was inactive: -0.88%.

**Q.** Which inhibition of corepressor binding does the source give for CC(C)(C)OC(=O)N1CCC(Nc2ccccc2)CC1 here?
**A.** Its inhibition of corepressor binding is inactive: -1.09%.

**Q.** With O=C(O)C1(Nc2ccccc2)CCN(Cc2ccccc2)CC1 as the compound, how does the inhibition of corepressor binding read?
**A.** Its inhibition of corepressor binding is inactive: -4.14%.

**Q.** With CCCOc1ccc(C(=O)NCC2(N(C)C)CCCCC2)cc1 as the compound, how does the inhibition of corepressor binding read?
**A.** The inhibition of corepressor binding was inactive: 3.04%.

**Q.** COc1cccc(C(=O)N(c2cc(C)cc(C)c2)C2CCN(C(=O)OC(C)(C)C)CC2)c1 was tested. Which inhibition of corepressor binding did it give?
**A.** The inhibition of corepressor binding was inactive: 2.86%.

**Q.** For COc1cc(OC)cc(C(=O)NCC2(N3CCOCC3)CCCCC2)c1, which inhibition of corepressor binding is on record?
**A.** Its inhibition of corepressor binding is inactive: 2.27%.

**Q.** Which inhibition of corepressor binding does the source give for CCC(CO)(C(=O)OC1CN2CCC1CC2)c1ccccc1 (stereo unspecified) here?
**A.** Its inhibition of corepressor binding is inactive: -2.91%.

**Q.** For CN1CCC(Nc2ccc(Cl)cc2)CC1, which inhibition of corepressor binding is on record?
**A.** Its inhibition of corepressor binding is inactive: 3.48%.

**Q.** Which inhibition of corepressor binding does the source give for CCCOc1ccc(C)cc1CN(CCCl)CCCl here?
**A.** Its inhibition of corepressor binding is inactive: -2.26%.
